Measurements taken from patent US8748423B2, “Compositions and methods for the prevention and treatment of cancer” (Kinex Pharmaceuticals, LLC, priority 2010, dated 2014).

How the values were obtained:
Type in all cases: cell-based
Daoy = experiment: brain tumor cell line growth inhibition, Daoy; conditions: Homo sapiens, desmoplastic cerebellar medulloblastoma
Protocol: (§1) These GI50s were determined using standard tumor growth inhibition assays.

SK-N-MC = experiment: brain tumor cell line growth inhibition, SK-N-MC; conditions: Homo sapiens, neuroepithelioma
Protocol: as §1

SW1088 = experiment: brain tumor cell line growth inhibition, SW1088; conditions: Homo sapiens; SW1088, astrocytoma
Protocol: as §1

U87 = experiment: brain tumor cell line growth inhibition, U87; conditions: Homo sapiens, U-87 MG; U87, glioblastoma; astrocytoma
Protocol: as §1

IC50 (Daoy): 2930 nM
IC50 (SK-N-MC): 5110 nM
IC50 (SW1088): 897 nM
IC50 (U87): 1590 nM
SMILES: Cc1nc(Nc2ncc(C(=O)Nc3c(C)cccc3Cl)s2)cc(N2CCN(CCO)CC2)n1 [Dasatinib, reference compound]
